# From ChEMBL document CHEMBL5357018, “Discovery of Malarial Threonyl tRNA Synthetase Inhibitors by Screening of a Focused Fragment Library” (ACS Med Chem Lett, 2024)
# Molecular target: T1, threonine--tRNA ligase (Plasmodium falciparum) (UniProt Q8IIA4)
# T1 sequence (whole entry): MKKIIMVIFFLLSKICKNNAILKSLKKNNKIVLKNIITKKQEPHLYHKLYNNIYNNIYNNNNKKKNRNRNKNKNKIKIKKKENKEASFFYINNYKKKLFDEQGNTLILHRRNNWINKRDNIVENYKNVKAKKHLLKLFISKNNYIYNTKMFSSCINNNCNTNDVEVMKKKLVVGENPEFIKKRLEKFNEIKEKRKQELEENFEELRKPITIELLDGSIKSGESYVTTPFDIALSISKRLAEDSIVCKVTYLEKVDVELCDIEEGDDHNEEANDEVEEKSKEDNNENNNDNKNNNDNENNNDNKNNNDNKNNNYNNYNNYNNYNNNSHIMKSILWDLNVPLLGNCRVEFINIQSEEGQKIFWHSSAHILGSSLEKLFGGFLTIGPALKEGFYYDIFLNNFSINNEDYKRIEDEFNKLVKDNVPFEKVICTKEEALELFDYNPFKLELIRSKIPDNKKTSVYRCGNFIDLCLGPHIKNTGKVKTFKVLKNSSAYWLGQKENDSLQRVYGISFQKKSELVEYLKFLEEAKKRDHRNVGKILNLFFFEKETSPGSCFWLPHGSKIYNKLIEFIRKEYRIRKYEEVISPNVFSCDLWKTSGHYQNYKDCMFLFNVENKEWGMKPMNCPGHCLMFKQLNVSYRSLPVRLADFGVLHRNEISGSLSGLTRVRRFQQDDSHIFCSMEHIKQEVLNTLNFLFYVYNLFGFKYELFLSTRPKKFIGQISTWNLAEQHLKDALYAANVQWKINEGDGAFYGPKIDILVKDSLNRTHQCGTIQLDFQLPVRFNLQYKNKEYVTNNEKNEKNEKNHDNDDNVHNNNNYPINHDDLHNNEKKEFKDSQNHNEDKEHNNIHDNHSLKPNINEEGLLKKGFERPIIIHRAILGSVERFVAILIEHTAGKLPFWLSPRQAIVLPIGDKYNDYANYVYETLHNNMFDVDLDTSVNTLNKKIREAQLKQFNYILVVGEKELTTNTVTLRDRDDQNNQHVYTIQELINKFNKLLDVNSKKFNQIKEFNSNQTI
# Conditions: dose 100.0 µM
row,Compound,inhibition
1,C[C@@H](O)[C@H](N)C(=O)NP(=O)(O)OCCc1ccccc1,30%
2,C[C@@H](O)[C@H](N)C(=O)N[S+]([O-])c1ccccc1 (some centres undefined),33%
3,C[C@@H](O)[C@H](N)C(=O)NP(=O)(O)Oc1ccccc1,0%
4,C[C@@H](O)[C@H](N)C(=O)NS(=N)(=O)c1ccccc1 (mixture of isomers),13%

# Now from value to molecule:
row,inhibition,Compound
1,9%,C[C@@H](O)[C@H](N)C(=O)NS(=O)(=O)Nc1ccccc1
2,33%,C[C@@H](O)[C@H](N)C(=O)NS(=O)(=O)Oc1cccc2cnccc12
3,26%,C[C@@H](O)[C@H](N)C(=O)NS(=O)(=O)c1ccccc1
4,24%,C[C@@H](O)[C@H](N)C(=O)NS(=O)(=O)Oc1cccc2ncccc12
5,29%,C[C@@H](O)[C@H](N)C(=O)NS(=O)(=O)Oc1cccc2nccnc12
